Assays:
[1] = Drug remaining conjugated on light and heavy chain fragments in rat plasma samples, LC/MS
[2] = Rat study of trastuzumab-MC-val-cit-PAB-MMAE (Example 8): clinical observations, mortality, body weight; format: in vivo, Sprague-Dawley rats; conditions: for changes in body weight by Day 5, group 3 versus group 5: 2105 ug/m^2 MMAE, 12.5 mg/kg (8.7) versus 20.2 mg/kg (5.3), p<0.05; for changes in body weight: groups 2, 4 and 7, comparable amounts of MMAE (840 ug/m^2)
Method: Groups 2 and 3 were administered a preparation of Tr-MC-val-cit-PAB-MMAE with average drug loading of 8.7 MMAE/Tr. Groups 4, 5, and 6 were administered a preparation of Tr-MC-val-cit-PAB-MMAE with average drug loading of 5.3 MMAE/Tr. […] Group 6 received the highest dose of 4209 μg MMAE/m^2.
The dose solutions were administered by a single intravenous bolus tail-vein injection on Study Day 1 at a dose volume of 10 ml/kg. All dose solutions were within 10% of the intended concentration. Body weights of the animals were measured pre-dose on Study Day 1 and daily thereafter. Whole blood was collected into EDTA containing tubes for hematology parameters and complete blood counts. Whole blood was collected into serum separator tubes for clinical chemistry parameters. Blood samples were collected pre-dose on […], and on Study Days 3 and 5. Whole blood was also collected into lithium heparin containing tubes and the plasma was frozen at −70° C. for later analysis.
Two animals in Group 6 administered 40.4 mg/kg trastuzumab-MC-val-cit-PAB-MMAE (5.3, cysteine) were found dead on Study Day 4. The remaining 4 animals in that group were moribund (lethargy and yellow discharges in the urogenital area) and were euthanized and necropsied on Day 4.

[3] = Free drug MMAF in plasma of rats dosed with trastuzumab-MC-vc-PAB-MMAF, LC/MS; conditions: rats dosed 26.12 mg ADC/kg; day 5
[4] = Group 6, 40.4 mg/kg, single iv bolus, 6 female rats

Substance | MMAE per LC (light chain fragments) ([1]; day 4, 20.2 mg ADC/kg) | changes in body weight by Day 5, group 3 versus group 5 [2] | appearance of animals throughout the 5 days on study ([2]; Group 4, 8.06 mg ADC/kg, single iv bolus, 6 female rats) | appearance of animals throughout the 5 days on study ([2]; Group 5, 20.2 mg ADC/kg, single iv bolus, 6 female rats) | animals found dead on Study Day 4 [2, 4] | remaining animals moribund (lethargy and yellow discharges in the urogenital area), euthanized and necropsied on Day 4 [2, 4] | changes in body weight [2] | appearance of animals throughout the 5 days on study ([2]; Group 2, 5.0 mg ADC/kg, single iv bolus, 6 female rats) | appearance of animals throughout the 5 days on study ([2]; Group 3, 12.5 mg ADC/kg, single iv bolus, 6 female rats) | MMAF per HC (heavy chain fragments) ([1]; day 4, 26.12 mg/kg) | MMAF per LC (light chain fragments) ([1]; day 4, 26.12 mg/kg) | free MMAF in plasma [3]
trastuzumab-MC-val-cit-PAB-MMAE (5.3 drugs/antibody): preparation of Tr-MC-val-cit-PAB-MMAE with average drug loading of 5.3 MMAE/Tr | 0.9 MMAE per LC | significantly different changes in body weight | appeared healthy | appeared healthy | Two | 4 animals | comparable changes in body weight | – | – | – | – | –
trastuzumab-MC-val-cit-PAB-MMAE (8.7 drugs/antibody): preparation of Tr-MC-val-cit-PAB-MMAE with average drug loading of 8.7 MMAE/Tr | – | significantly different changes in body weight | – | – | – | – | comparable changes in body weight | appeared healthy | appeared healthy | – | – | –
trastuzumab-MC-vc-PAB-MMAF with drug loading of 4 | – | – | – | – | – | – | – | – | – | 0.9 MMAF per HC | 0.4 MMAF per LC | 9.09 ng/mL

From patent publication US7662936B2, “Mass spectrometry of antibody conjugates” (priority 2004, dated 2010)
